Results as given in US20250283871A1, “COMPOSITIONS AND METHODS FOR MODULATING THE INTERACTION BETWEEN SS18-SSX FUSION ONCOPROTEIN AND NUCLEOSOMES” (Dana-Farber Cancer Institute, Inc., priority 2020, published 2025).

What was measured:
[1] = biological target: H3K4ac1 histone form in mammalian mononucleosomes from HEK-293T cells (mammalian (HEK-293T cells)) (UniProt P68431); test: MBP-SSX1 78aa pull-down of HEK293T mononucleosomes, targeted histone MS, sample MM04_D01
[2] = biological target: H4(4to17)K5ac1K8ac1me0 histone form in mammalian mononucleosomes from HEK-293T cells (mammalian (HEK-293T cells)) (UniProt P62805); test: as above
[3] = biological target: H4(20to23)K20me0 histone form in mammalian mononucleosomes from HEK-293T cells (mammalian (HEK-293T cells)) (UniProt P62805); test: as above
[4] = biological target: H3K4me1 histone form in mammalian mononucleosomes from HEK-293T cells (mammalian (HEK-293T cells)) (UniProt P68431); test: as above
[5] = biological target: H4(4to17)K5ac1K16ac1me0 histone form in mammalian mononucleosomes from HEK-293T cells (mammalian (HEK-293T cells)) (UniProt P62805); test: as above
[6] = biological target: H4(4to17)K12ac1me0 histone form in mammalian mononucleosomes from HEK-293T cells (mammalian (HEK-293T cells)) (UniProt P62805); test: as above
[7] = biological target: H2B(1to29)K5ac1 histone form in mammalian mononucleosomes from HEK-293T cells (mammalian (HEK-293T cells)) (UniProt P62807); test: as above
[8] = biological target: H2A(4to11)ac0 histone form in mammalian mononucleosomes from HEK-293T cells (mammalian (HEK-293T cells)) (UniProt P0C0S8); test: as above
[9] = biological target: H2B(1to29)ac0 histone form in mammalian mononucleosomes from HEK-293T cells (mammalian (HEK-293T cells)) (UniProt P62807); test: as above
[10] = biological target: H4(4to17)K5ac1K8ac1K12ac1me0 histone form in mammalian mononucleosomes from HEK-293T cells (mammalian (HEK-293T cells)) (UniProt P62805); test: as above
[11] = biological target: H4(20to23)K20me1 histone form in mammalian mononucleosomes from HEK-293T cells (mammalian (HEK-293T cells)) (UniProt P62805); test: as above
[12] = biological target: H4(4to17)K12ac1K16ac1me0 histone form in mammalian mononucleosomes from HEK-293T cells (mammalian (HEK-293T cells)) (UniProt P62805); test: as above
[13] = biological target: H4(4to17)K16ac1me0 histone form in mammalian mononucleosomes from HEK-293T cells (mammalian (HEK-293T cells)) (UniProt P62805); test: as above
[14] = biological target: H2A(12to17)K15ac1 histone form in mammalian mononucleosomes from HEK-293T cells (mammalian (HEK-293T cells)) (UniProt P0C0S8); test: as above
[15] = biological target: H2A(12to17)ac0 histone form in mammalian mononucleosomes from HEK-293T cells (mammalian (HEK-293T cells)) (UniProt P0C0S8); test: as above
[16] = biological target: H4(4to17)K5ac1me0 histone form in mammalian mononucleosomes from HEK-293T cells (mammalian (HEK-293T cells)) (UniProt P62805); test: as above
[17] = biological target: H4(4to17)ac0me0 histone form in mammalian mononucleosomes from HEK-293T cells (mammalian (HEK-293T cells)) (UniProt P62805); test: as above
[18] = biological target: H3K9me3S10ph1K14ac0 histone form in mammalian mononucleosomes from HEK-293T cells (mammalian (HEK-293T cells)) (UniProt P68431); test: as above
[19] = biological target: H4(4to17)K8ac1K12ac1K16ac1me0 histone form in mammalian mononucleosomes from HEK-293T cells (mammalian (HEK-293T cells)) (UniProt P62805); test: as above
[20] = biological target: H3K4me3 histone form in mammalian mononucleosomes from HEK-293T cells (mammalian (HEK-293T cells)) (UniProt P68431); test: as above
[21] = biological target: mammalian mononucleosomes (HEK293T, MNase) carrying histone H3 K79me2 (mammalian (HEK293T cells)) (UniProt P68431); test: MBP-SSX1 78aa pull-down of HEK293T mononucleosomes, targeted quantitative histone MS; replicate 1 (MM04_D01)
[22] = biological target: mammalian mononucleosomes (HEK293T, MNase) carrying histone H3 K79me1 (mammalian (HEK293T cells)) (UniProt P68431); test: as above

MBP-SSX1 (78aa) (from UniProt P0AEX9 27-392)
log2 normalized (Light/Heavy) intensity ratio [1]: 0.263 log2
log2 normalized (Light/Heavy) intensity ratio [2]: 0.107 log2
log2 normalized (Light/Heavy) intensity ratio [3]: 0.017 log2
log2 normalized (Light/Heavy) intensity ratio [4]: 0.74 log2
log2 normalized (Light/Heavy) intensity ratio [5]: 0.226 log2
log2 normalized (Light/Heavy) intensity ratio [6]: -0.207 log2
log2 normalized (Light/Heavy) intensity ratio [7]: 0.273 log2
log2 normalized (Light/Heavy) intensity ratio [8]: -0.026 log2
log2 normalized (Light/Heavy) intensity ratio [9]: 0.152 log2
log2 normalized (Light/Heavy) intensity ratio [10]: -0.223 log2
log2 normalized (Light/Heavy) intensity ratio [11]: -0.427 log2
log2 normalized (Light/Heavy) intensity ratio [12]: 0.204 log2
log2 normalized (Light/Heavy) intensity ratio [13]: -0.391 log2
log2 normalized (Light/Heavy) intensity ratio [14]: 0.042 log2
log2 normalized (Light/Heavy) intensity ratio [15]: 0.201 log2
log2 normalized (Light/Heavy) intensity ratio [16]: -0.053 log2
log2 normalized (Light/Heavy) intensity ratio [17]: -0.613 log2
log2 normalized (Light/Heavy) intensity ratio [18]: -0.566 log2
log2 normalized (Light/Heavy) intensity ratio [19]: 0.677 log2
log2 normalized (Light/Heavy) intensity ratio [20]: 0.766 log2
log2 normalized (Light/Heavy) intensity ratio of the histone peptide [21]: 0.826 log2
log2 normalized (Light/Heavy) intensity ratio of the histone peptide [22]: 0.954 log2
